# Apparent affinities of Ab-14 variants for a coronavirus HR2 peptide

The target is the same throughout: PDVDLGDISGINAS, from the HR2 region of SARS-CoV-2 spike.

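The starting antibody came from a phage panning campaign against this peptide. The library (AAYL50) carries one to three amino acid substitutions per variant, with no insertions or deletions. The assay is AlphaSeq: two haploid yeast populations carry antibody and antigen on their surface. After mating in shaken culture at 30 °C for 16 h, diploids were selected and their barcode pairs sequenced. Read counts were normalised to the haploid input and turned into Kd by a linear fit to BCL2-family pairs of known affinity, for each replicate. Mating was done three times.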

The variants keep the heavy chain, the linker and the frameworks of Ab-14 (scFv order VH, three GGGGS repeats, VL).
VH: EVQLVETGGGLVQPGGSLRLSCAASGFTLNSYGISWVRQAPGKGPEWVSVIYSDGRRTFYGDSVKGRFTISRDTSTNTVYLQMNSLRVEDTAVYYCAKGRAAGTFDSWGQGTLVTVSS
VL: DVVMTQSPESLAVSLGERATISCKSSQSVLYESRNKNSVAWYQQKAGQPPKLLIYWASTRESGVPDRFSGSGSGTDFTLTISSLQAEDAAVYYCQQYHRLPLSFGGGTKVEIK

Positions count from residue 1 of the parent VL; Q27D puts D in place of Q. Scale: log10 of Kd in nM, estimated from mating counts; low values are strong binders. Averages over replicates are reported, and they cover detected replicates only. "no signal" marks a missing value. The strain was present, yet no cells mated with the target were sequenced in any replicate, which points to weak or no binding. In this assay the parent's reference entry averaged 0.65; its copy inside this library read 1.68.

| log10 Kd (nM), mean | replicates with signal | changes |
|---|---|---|
| 4.88 | 2/3 | Q27D S58V L100T |
| no signal | 0/3 | E32C K36D R60S |
| -0.45 | 3/3 | K24L L30V W56G |
| 5.01 | 3/3 | L30I V39S A40G |
| 2.58 | 1/3 | S28K K36M S58I |
| 0.44 | 3/3 | S25I N35K |
| 0.47 | 3/3 | S26T W56Q E61R |
| 0.94 | 3/3 | Y31V N37D H98S |
| 4.86 | 2/3 | T59A Q96P L102Y |
| 1.56 | 3/3 | S58E E61P H98M |
| no signal | 0/3 | Q27K A57T Q96C |
| no signal | 0/3 | Q27G S28W R60S |
| 3.39 | 3/3 | S25R S38A Y97M |
| 3.80 | 1/3 | V29F K36P R99I |
| 0.32 | 3/3 | S62I H98P S103K |
| no signal | 0/3 | K24T V39W Q96A |
| 4.79 | 2/3 | A57G Q95C Q96E |
| 4.79 | 1/3 | L30G A40K S103Q |
| no signal | 0/3 | S33N T59E Y97E |
| no signal | 0/3 | L30V N35G A40F |
| -0.59 | 3/3 | V29W W56G |
| no signal | 0/3 | S28F R34Q Y97A |
| 2.24 | 1/3 | L30S A57Q L102S |
| 2.32 | 3/3 | S62C L100A |
| 2.26 | 3/3 | S33D R34S R60G |
| 1.18 | 3/3 | Q27L L30C E32W |
| 1.54 | 3/3 | S26M Q27A S103T |
| no signal | 0/3 | S33T S58A S62C |
| 0.43 | 3/3 | Y31Q N35L L100K |
| 1.28 | 3/3 | A57S S103F |
| no signal | 0/3 | K24E K36D S38I |
| 5.43 | 2/3 | V39A R60Q L100E |
| 1.24 | 3/3 | K24V S103M |
| no signal | 0/3 | Q27L S28I Q95K |
| 2.50 | 1/3 | S25Y V29H L30T |
| 2.61 | 3/3 | R34E S58K E61P |
| no signal | 0/3 | V29S L102G |
| -0.07 | 3/3 | Q27I K36P W56G |
| no signal | 0/3 | S58L Q95R R99D |
| 2.09 | 3/3 | Q27G N35L S103H |
| 1.66 | 3/3 | Q27K V29G Q96C |
| 1.00 | 3/3 | W56K Q96M |
| 4.16 | 3/3 | W56C Q95F P101M |
| 4.78 | 1/3 | E32A A40K |
| -0.23 | 3/3 | S25T S28N W56N |
| no signal | 0/3 | Q27W Q96A Y97H |
| 3.30 | 3/3 | R34C Y97L |
| 3.80 | 3/3 | W56V S58N Q96S |
| 2.95 | 1/3 | R34M N37G Y97P |
| 4.02 | 3/3 | Y31F S38Y L102F |
| no signal | 0/3 | E32Q N37L R99W |
| 2.60 | 1/3 | S26Y R34F T59P |
| 3.56 | 3/3 | S25G A57T T59D |
| no signal | 0/3 | V29Q W56R L100R |
| 3.04 | 1/3 | V29E W56D S62M |
| 3.17 | 1/3 | K24V H98M R99F |
| 1.59 | 3/3 | L30T S33E S58G |
| 2.26 | 3/3 | S26F S33Q K36I |
| 2.64 | 3/3 | Y31H Y97W L102K |
| 4.35 | 2/3 | A57Y Q96H H98F |
| 1.99 | 3/3 | S28I N35V L100H |
| 0.47 | 3/3 | V29L N35Q L102N |
| 4.17 | 3/3 | S26C S38A A57L |
| 5.37 | 2/3 | Y31C V39A T59D |
| 3.92 | 1/3 | R34Y A57R Q96C |
| 2.22 | 3/3 | S33A H98E R99A |
| 1.18 | 3/3 | V29H N37D P101A |
| 1.53 | 3/3 | S25T Q27K S58N |
| no signal | 0/3 | V29Q L30G R60K |
| 3.03 | 1/3 | S25E V29Y A40T |
| 3.65 | 3/3 | S33Y S58C S62R |
| 3.27 | 1/3 | V29D N35P A57W |
| no signal | 0/3 | L30Q S33T R34G |
| 2.01 | 3/3 | K24A S33N L100Y |
| no signal | 0/3 | K36T A57P P101N |
| -0.08 | 3/3 | W56G S62F P101E |

As a blank, each scFv also met three strains without target: over library AAYL50, 18% of these pairings were detected, typically at 4.19 and seldom below 2.99.

Values reported by Engelhart et al. 2022, doi:10.1038/s41597-022-01779-4 (FLAb copy).